From patent publication US7205002B2, “Method of making, and the use of cytotoxic agents containing elemental selenium” (MCW Research Foundation, Inc., priority 2002, dated 2007)

Test system: L1210 leukemia cells
Assay: Cytotoxic activity of conjugates formed by dye photoproducts and serum (lipo)proteins, in vitro clonal assay
Type: cell-based, murine
Protocol: Optimal dye:protein ratios for generation of fluorescent and cytotoxic conjugates: Bovine serum albumin was dissolved at a concentration of 1.75 mg/ml in 10 mM HEPES buffer pH 7.4. […] The mixtures were exposed to white light (27 W/m^2) for 60 min as deescribed above. To assess fluorescent conjugate formation, the photoirradiated mixtures were diluted 30 times with 10 mM HEPES buffer pH 7.4, and fluorescence emission spectra were recorded with a Hitachi F-4500 fluorescence spectrophotometer using an excitation wavelength of 490 nm. To assess cytotoxic activity, cytotoxic conjugates were made isotonic by the addition of an appropriate volume of double-concentrated alpha-medium and incubated with L1210 leukemia cells for 60 min at 37° C. The surviving fraction of in vitro clonogenic leukemia cells was determined by in vitro clonal assay as described in Sieber, F. et al., 1984, which is incorporated by reference in its entirety. [table] Optimal Dye-to-Protein Ratios: For the generation of fluorescent conjugates, the optimal ratio of dye-to-protein is 2:1. For cytotoxic conjugates, the optimal dye-to-protein ratio appears to be about 5:1 (FIG. 7). The fluorescence yield of fluorescent photoproduct-albumin conjugates was determined with a Hitachi F4500 fluorescence spectrophotometer. All samples were serially diluted with buffer to rule out artifacts due to self-quenching. […]

In the case of “Human serum albumin: carrier protein for conjugates with MC54-derived photoproducts”, the “Cytotoxic Activity” value is reported as “yes”.
